Reference: PubChem BioAssay AID602229 (The Scripps Research Institute Molecular Screening Center, 2012)
The entries are a selection whose mix differs from that of the whole data set. Some results for these compounds are left out of this collection, so the calls shown say nothing about other tests. Calls of active or inactive are those of the source.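 The calls were made as follows: active = inhibition above the mean of all tested compounds plus 3 SD (cut at about 70% in these data); inactive = the rest.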

Sequences of proteins named here, by UniProt entry; tags and fusion partners are left off.
UniProt Q9Y5X4, whole entry: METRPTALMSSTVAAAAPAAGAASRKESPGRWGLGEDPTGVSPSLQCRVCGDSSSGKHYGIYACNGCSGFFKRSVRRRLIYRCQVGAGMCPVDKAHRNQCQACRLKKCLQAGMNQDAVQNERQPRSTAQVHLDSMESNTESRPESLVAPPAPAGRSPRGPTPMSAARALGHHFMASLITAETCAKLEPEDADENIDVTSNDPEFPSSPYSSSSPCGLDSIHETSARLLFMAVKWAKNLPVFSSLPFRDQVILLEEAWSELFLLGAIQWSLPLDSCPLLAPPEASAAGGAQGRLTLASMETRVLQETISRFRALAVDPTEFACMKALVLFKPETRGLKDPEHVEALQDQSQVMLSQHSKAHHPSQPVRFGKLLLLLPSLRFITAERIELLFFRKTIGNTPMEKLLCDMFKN

These compounds were tested against Photoreceptor-specific nuclear receptor (Homo sapiens) (UniProt Q9Y5X4) (assay: NR2E3 agonists in two-hybrid cells, primary screen, cell-based, luminescence, CHO-S, Gal4-NCOR/VP16-NR2E3 (AID 602229;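 also: 0% = DMSO with NR2E3 transfected cells and 100% = cells lacking NR2E3 construct; higher means lower luciferase signal from less NR2E3 corepressor binding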)). Conditions: luciferase, at 3.98 µM, stronger effect = higher value.
C=C(C)C#CC(O)(C(=O)OC1CCN(C)CC1)c1ccccc1 (stereo unspecified) was tested, and the inhibition of corepressor binding was inactive: 10.9%. With COc1ccc(Br)c(C(=O)NCC2(N3CCCCC3)CCCCC2)c1 the inhibition of corepressor binding was inactive: 11.8%. CC(C)Oc1ccc(C(=O)NCC2(N(C)C)CCCCC2)cc1 was tested, and the inhibition of corepressor binding was inactive: -7.47%. For O=C(OCCN1CCCC1)C(O)(c1ccccc1)c1ccccc1, the inhibition of corepressor binding was inactive: -15.2%. In the case of CN(C)c1cccc(C(=O)NCC2(N(C)C)CCCCC2)c1, the inhibition of corepressor binding is reported as inactive: -7.19%. In the case of O=C(OC1CN2CCC1CC2)C(CO)(c1ccccc1)c1ccccc1 (stereo unspecified), the inhibition of corepressor binding is reported as inactive: -11.6%. With COc1cccc(C(=O)NCC2(N3CCCCC3)CCCCC2)c1 the inhibition of corepressor binding was inactive: 8.86%. In the case of COc1ccc(Cl)cc1C(=O)NCC1(N(C)C)CCCCC1, the inhibition of corepressor binding is reported as inactive: -4.32%. O=C(NCC1(N2CCCCC2)CCCCC1)c1cccc(Cl)c1 was tested, and the inhibition of corepressor binding was inactive: 25.2%. In the case of CN(C)C1(CNC(=O)c2ccc(Br)cc2)CCCCC1, the inhibition of corepressor binding is reported as inactive: -45.4%. With COc1cc(C(=O)NCC2(N(C)C)CCCCC2)c([N+](=O)[O-])cc1OC the inhibition of corepressor binding was inactive: -2.77%. With C=CCN1CCN(CCOC(=O)C(O)(c2ccccc2)c2ccccc2)CC1 the inhibition of corepressor binding was inactive: -0.62%. For O=C(NCC1(N2CCCCC2)CCCCC1)c1cc(F)c(F)cc1Cl, the inhibition of corepressor binding was inactive: -8.05%. With COc1ccc(C(=O)NCC2(N(C)C)CCCCC2)cc1 the inhibition of corepressor binding was inactive: -14.1%. Cc1cc(C(=O)NCC2(N3CCCCC3)CCCCC2)ccc1[N+](=O)[O-] was tested, and the inhibition of corepressor binding was inactive: 5.54%. With CCN1CCCC(OC(=O)C2(O)c3ccccc3C=Cc3ccccc32)C1 (stereo unspecified) the inhibition of corepressor binding was inactive: -0.69%. O=C(NCC1(N2CCCCC2)CCCCC1)c1cccc(Br)c1 was tested, and the inhibition of corepressor binding was inactive: 6.63%. With Cc1ccccc1C(=O)NCC1(N2CCCCC2)CCCCC1 the inhibition of corepressor binding was inactive: -2.71%. In the case of CN(C)C1CCCC1OC(=O)C(O)(c1ccccc1)c1ccccc1 (stereo unspecified), the inhibition of corepressor binding is reported as inactive: 11.8%. With CN(C)c1ccc(C(=O)NCC2(N(C)C)CCCCC2)cc1 the inhibition of corepressor binding was inactive: -4.21%. For CCN(CC)CC(C)C(C)OC(=O)C(O)(c1ccccc1)c1ccccc1 (stereo unspecified), the inhibition of corepressor binding was inactive: -14.9%. COc1cc(SC)ccc1C(=O)NCC1(N(C)C)CCCCC1 was tested, and the inhibition of corepressor binding was inactive: -19.9%. CC(C)N1C(=O)CC2(CCN(CCOC(=O)C(O)(c3ccccc3)c3ccccc3)CC2)C1=O was tested, and the inhibition of corepressor binding was inactive: -18.3%. Cc1ccc(C(=O)NCC2(N3CCCCC3)CCCCC2)cc1 was tested, and the inhibition of corepressor binding was inactive: 0.64%. O=C(NCC1(N2CCCCC2)CCCCC1)c1cc([N+](=O)[O-])ccc1Cl was tested, and the inhibition of corepressor binding was inactive: -12.4%. With CN1[C@@H]2CC[C@H]1CC(OC(=O)C(O)(c1ccccc1)c1ccccc1)C2 (stereo partly specified) the inhibition of corepressor binding was inactive: 4.46%.
